The results in this text go back to PMC3105092 (PLoS ONE, 2011).

A word on the Kd: it is a measure of binding affinity in units of concentration. In general, IC50 refers to the midpoint of a concentration-inhibition curve.

Several values for one entry are separate records, joined by “and”; a condition that tells them apart may be missing. Equal entries are not always repeated.

Data set [1] deals with T1, AgCPR (Anopheles gambiae NADPH-cytochrome P450 oxidoreductase) (Anopheles gambiae, UniProt Q86QH5).
T1 sequence (Q86QH5 64-679): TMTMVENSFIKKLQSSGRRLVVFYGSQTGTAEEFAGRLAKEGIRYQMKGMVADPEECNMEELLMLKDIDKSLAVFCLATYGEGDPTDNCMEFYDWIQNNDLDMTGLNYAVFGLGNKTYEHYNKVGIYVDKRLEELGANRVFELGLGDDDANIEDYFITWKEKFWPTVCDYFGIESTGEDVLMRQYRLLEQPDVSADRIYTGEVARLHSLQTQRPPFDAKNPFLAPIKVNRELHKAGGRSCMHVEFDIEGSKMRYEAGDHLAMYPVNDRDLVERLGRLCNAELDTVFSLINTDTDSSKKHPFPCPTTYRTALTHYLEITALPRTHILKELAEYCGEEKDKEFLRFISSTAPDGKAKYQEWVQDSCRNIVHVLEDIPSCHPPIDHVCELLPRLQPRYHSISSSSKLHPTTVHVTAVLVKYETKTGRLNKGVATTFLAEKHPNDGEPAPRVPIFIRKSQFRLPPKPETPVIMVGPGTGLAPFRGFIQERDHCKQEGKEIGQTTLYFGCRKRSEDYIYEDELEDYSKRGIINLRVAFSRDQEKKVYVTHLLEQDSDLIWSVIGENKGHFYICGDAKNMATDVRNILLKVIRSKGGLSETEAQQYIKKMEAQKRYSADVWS
Put plainly: Isothermal titration calorimetry of nucleotide ligands with AgCPR. Type of data set: binding. As to conditions: ITC. The method, then:
ITC experiments were performed using a ITC200 microcalorimeter (Microcal Inc/GE Healthcare). Protein samples were dialysed into 100 mM BES; pH 7.0 from 50% glycerol stocks stored at −20°C. The concentrations of all the proteins were determined by using Bradford assay. Samples were centrifuged at 13,000×g for 10 min and degassed at 23°C (2°C below the temperature at which the experiments were performed). All experiments were performed at 25°C. Typically, the protein concentration in the cell was 10–20 µM whilst ligand concentrations were in the range of 100–1000 µM. The data analysed using Origin 7.0 (Microcal) after subtracting the heats of dilution obtained from parallel experiments performed by injecting the nucleotide into the buffer. Thermodynamic parameters n (stoichiometry), K d (1/K a, the association constant), and Δ°H (enthalpy change) were obtained by nonlinear least-squares fitting of experimental data using the single-site binding model. The free energy of binding (ΔG°) and entropy change (ΔS°) were obtained using eqs 1 and 2.

In data set [2] the target is T2, hCPR (Homo sapiens, UniProt P16435).
T2 sequence (P16435 43-677 limits assumed): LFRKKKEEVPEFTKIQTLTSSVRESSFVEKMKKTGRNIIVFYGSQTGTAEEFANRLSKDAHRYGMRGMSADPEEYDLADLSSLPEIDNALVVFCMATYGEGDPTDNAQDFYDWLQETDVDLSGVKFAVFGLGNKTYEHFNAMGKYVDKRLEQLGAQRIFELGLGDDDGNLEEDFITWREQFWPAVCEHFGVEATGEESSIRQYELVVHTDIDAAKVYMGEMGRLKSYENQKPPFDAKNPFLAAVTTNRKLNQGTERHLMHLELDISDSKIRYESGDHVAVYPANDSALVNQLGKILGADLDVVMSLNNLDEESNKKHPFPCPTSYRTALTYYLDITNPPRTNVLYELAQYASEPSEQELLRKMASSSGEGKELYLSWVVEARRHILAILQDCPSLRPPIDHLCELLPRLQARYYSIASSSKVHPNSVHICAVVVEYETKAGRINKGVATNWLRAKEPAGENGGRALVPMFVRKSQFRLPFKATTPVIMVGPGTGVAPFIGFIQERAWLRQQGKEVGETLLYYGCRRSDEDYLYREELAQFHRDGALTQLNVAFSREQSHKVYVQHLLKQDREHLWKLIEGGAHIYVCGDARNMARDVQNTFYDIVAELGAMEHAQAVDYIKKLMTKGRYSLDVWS
Put plainly: Inhibition of cytochrome c reduction by hCPR. The conditions noted are these: read-out: IC50 (±S.E.), inhibition of cytochrome c reduction; Human CPR, Phosphate Buffer (0.3 M potassium phosphate pH 7.7), 15 µM NADPH, 50 µM cytochrome c, 25°C. It is filed as biochemical.

The target in data set [3] is T3, hCPR (Homo sapiens, UniProt P16435).
T3 construct: gene POR
T3 sequence (P16435 64-677): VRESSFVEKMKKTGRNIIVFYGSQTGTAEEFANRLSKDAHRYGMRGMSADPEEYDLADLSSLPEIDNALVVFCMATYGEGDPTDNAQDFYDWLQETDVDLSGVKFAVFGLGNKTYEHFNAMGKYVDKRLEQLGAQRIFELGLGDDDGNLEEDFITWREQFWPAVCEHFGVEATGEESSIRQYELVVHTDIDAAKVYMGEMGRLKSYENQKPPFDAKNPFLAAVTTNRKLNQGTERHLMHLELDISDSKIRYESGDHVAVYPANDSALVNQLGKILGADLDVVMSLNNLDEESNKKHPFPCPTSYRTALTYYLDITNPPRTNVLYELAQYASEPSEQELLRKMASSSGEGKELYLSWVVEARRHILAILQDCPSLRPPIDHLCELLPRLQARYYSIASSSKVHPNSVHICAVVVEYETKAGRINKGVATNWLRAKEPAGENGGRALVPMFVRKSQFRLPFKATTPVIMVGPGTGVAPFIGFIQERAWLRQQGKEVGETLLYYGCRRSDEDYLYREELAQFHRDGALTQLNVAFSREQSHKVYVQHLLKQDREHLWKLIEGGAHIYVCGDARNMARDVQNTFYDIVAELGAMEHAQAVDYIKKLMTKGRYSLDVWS
The data set can be described thus: Isothermal titration calorimetry of oxidised CPR with nucleotides in phosphate-free 100 mM BES, pH 7.0, 25 °C, single-site model; Kd = 1/Kobs. Type of data set: binding. Background: Isothermal titration calorimetry measures the heat released or taken up as one component is titrated into another.

Data set [4] concerns the target T3, hCPR. Put plainly: Inhibition of cytochrome c (50 µM) reduction in phosphate-free 0.1 M Tris-HCl pH 7.7/0.1 M KCl, 25 °C, started with 12 µM (AgCPR) or 5 µM (hCPR) NADPH. It is filed as biochemical. The conditions noted are these: read-out: IC50 µM (±S.E.), Tris Buffer; SEM.
For data set [5], the target named is T4, AgCPR (Anopheles gambiae, UniProt Q86QH5). Put plainly: Inhibition of cytochrome c (50 µM) reduction in 0.3 M potassium phosphate pH 7.7, 25 °C, started with 30 µM NADPH (AgCPR). It is filed as biochemical. Details: Δ63AgCPR: soluble, membrane anchor (amino acids 2-63) deleted; His-tag removed by thrombin; expressed in E. coli. As to conditions: read-out: IC50 µM (±S.E.), Phosphate Buffer; SEM.

Data set [6] concerns the target T4, AgCPR. Put plainly: Inhibition of cytochrome c (50 µM) reduction in phosphate-free 0.1 M Tris-HCl pH 7.7/0.1 M KCl, 25 °C, started with 12 µM (AgCPR) or 5 µM (hCPR) NADPH. Type of data set: biochemical. The arrangement: Δ63AgCPR: soluble, membrane anchor (amino acids 2-63) deleted; His-tag removed by thrombin; expressed in E. coli. The conditions noted are these: read-out: IC50 µM (±S.E.), Tris Buffer; SEM.

Turning to NADP^+, the “binding (Kd) to AgCPR weaker than hCPR (fold)” value in data set [1] is on record as ~5 fold. Also, in data set [1] (25°C, 100 mM BES pH 7.0), the Kobs is 27.5±1.29 ×10^5 M^−1, the TΔS is -3.24 kcal/mol, the “n (binding stoichiometry)” value stood at 1.00±0.04 and the ΔG is -8.73 kcal/mol. In addition, the ΔH in data set [1] (25°C, 100 mM BES pH 7.0) is -11.97 kcal/mol and -11.97 ± 0.64 kcal/mol. In data set [1] (25°C, 100 mM BES pH 7.0, Kd = 1/Kobs), the Kd turned out to be 0.363 ± 0.017 µM. Moreover, the IC50 in data set [2] was found to be 105 ± 18 µM.
In data set [3], “nicotinamide adenine dinucleotide phosphate, oxidised form [NADP+]” showed a Kd of 0.069 ± 0.012 µM. The figures for the IC50 in data set [4], in data set [5] and in data set [6] were 29 ± 3 µM, 129 ± 35 µM and 29 ± 3 µM, respectively.
